Measurements: US7063946B2, “Methods, reagents, kits and apparatus for protein function analysis” (Meso Scale Technologies, LLC., priority 2001, dated 2006)

The chains behind the UniProt entries cited, without tags or fusion partners. Where a name states a change or a piece, a line headed by the entry shows the natural chain unless it says otherwise.
UniProt Q06187: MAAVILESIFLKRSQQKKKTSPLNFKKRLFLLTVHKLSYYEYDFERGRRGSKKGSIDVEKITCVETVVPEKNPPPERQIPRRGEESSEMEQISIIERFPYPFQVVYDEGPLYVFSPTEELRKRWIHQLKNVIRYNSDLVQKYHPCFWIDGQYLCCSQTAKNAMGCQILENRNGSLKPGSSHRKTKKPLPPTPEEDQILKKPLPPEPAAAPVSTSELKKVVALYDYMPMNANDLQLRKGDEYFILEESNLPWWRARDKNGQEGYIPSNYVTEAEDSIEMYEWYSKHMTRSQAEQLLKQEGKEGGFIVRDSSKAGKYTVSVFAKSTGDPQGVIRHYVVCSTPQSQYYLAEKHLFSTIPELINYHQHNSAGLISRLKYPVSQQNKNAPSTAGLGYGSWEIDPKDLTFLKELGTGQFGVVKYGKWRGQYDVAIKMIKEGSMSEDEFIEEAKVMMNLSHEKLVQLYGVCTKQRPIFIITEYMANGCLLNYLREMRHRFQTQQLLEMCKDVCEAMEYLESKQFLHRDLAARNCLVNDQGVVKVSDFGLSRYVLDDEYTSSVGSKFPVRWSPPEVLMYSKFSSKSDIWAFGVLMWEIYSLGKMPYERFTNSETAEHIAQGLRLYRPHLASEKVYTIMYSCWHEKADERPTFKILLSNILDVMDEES

What was measured:
[1] = molecular target: T1, BTK (Homo sapiens, UniProt Q06187); test: Kinase inhibitor profiling, autophosphorylation; type: biochemical
T1 construct: specificity data for proteins generated from a library of eighteen full-length clones; host or cells: rabbit reticulocyte lysate, TnT coupled in vitro transcription/translation (cell-free)

[2] = molecular target: T1, BTK; test: Kinase inhibitor profiling, pEY phosphorylation; type: biochemical

C/C(O)=C(\C#N)C(=O)Nc1cc(Br)ccc1Br [LFM-A13]
Inhibition specificity towards Autophosphorylation at 10X IC50, BTK [1]: L (low inhibition (“L”=between 50–75% of the activity remaining))
Inhibition specificity towards pEY phosphorylation at 10X IC50, BTK [2]: M (medium inhibition (“M”=between 25 to 50% of the activity remaining))
